# Target: hCB1R (Homo sapiens, UniProt P21554)
# Protein sequences, listed by entry. Tags and fused reporters are not part of them.
# UniProt P21554, whole entry: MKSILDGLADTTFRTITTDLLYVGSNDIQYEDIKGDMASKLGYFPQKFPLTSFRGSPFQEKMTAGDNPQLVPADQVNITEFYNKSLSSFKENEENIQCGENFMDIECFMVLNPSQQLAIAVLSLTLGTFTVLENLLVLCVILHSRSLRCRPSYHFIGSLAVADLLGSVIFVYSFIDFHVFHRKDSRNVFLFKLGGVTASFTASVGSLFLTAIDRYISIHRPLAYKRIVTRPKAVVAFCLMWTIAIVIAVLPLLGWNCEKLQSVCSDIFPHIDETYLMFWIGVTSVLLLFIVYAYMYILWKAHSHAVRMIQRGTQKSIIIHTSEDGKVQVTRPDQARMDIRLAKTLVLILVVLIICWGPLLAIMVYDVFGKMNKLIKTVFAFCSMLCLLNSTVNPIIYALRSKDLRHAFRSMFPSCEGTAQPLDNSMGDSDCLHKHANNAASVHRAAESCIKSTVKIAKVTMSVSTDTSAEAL
# Format: binding
# Settings: DMSO; 24°C; dissociation started with 1 μM unlabeled CP55940
# Procedure: The assay was terminated by rapid filtration onto GF/B filters pre-soaked in assay buffer using a Brandel cell harvester. The filters were washed six times with the ice-cold buffer before being dried in a heated cabinet. Filters were placed in vials to which 3 mL Ultima Gold scintillation fluid was added. The radioactivity in each vial was then counted for 3 min in a Tri-Carb liquid scintillation counter.
smiles,measurement,value
CCCCCCC(C)(C)c1ccc([C@@H]2C[C@H](O)CC[C@H]2CCCO)c(O)c1 [[^3H]CP55940],t1/2 (min) (95% CI) of [3H]CP55940 dissociation,4.75 (2.89–13.4) min

# From PMC6813218 (Frontiers in Molecular Neuroscience, 2019)
